Measured values as given in article PMC11997989, “Design of Novel Mercapto-3-phenylpropanoyl Dipeptides as Dual Angiotensin-Converting Enzyme C–Domain-Selective/Neprilysin Inhibitors” (Journal of Medicinal Chemistry, 2025).

By UniProt entry, the sequences of proteins in these tests, tags left out. Residues count along the entry.
UniProt P12821, 643-1222 limits assumed: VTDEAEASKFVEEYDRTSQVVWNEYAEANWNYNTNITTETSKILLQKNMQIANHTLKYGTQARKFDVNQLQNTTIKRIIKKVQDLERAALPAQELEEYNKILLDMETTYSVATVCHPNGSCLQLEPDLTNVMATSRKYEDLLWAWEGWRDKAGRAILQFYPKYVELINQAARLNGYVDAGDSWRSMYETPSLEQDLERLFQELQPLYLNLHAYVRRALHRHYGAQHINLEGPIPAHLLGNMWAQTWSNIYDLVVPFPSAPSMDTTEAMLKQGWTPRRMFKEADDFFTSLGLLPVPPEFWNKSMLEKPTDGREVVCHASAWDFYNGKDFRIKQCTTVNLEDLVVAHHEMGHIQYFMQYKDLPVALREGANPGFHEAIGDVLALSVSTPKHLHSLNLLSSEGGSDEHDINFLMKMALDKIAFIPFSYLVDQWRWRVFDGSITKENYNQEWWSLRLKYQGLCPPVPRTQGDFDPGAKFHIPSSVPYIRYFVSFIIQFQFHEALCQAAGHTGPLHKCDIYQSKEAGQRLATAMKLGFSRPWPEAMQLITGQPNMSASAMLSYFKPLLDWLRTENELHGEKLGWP

Target: T1, cACE (Homo sapiens, UniProt P12821)
T1 construct: using purified recombinant single domain human ACE proteins and the human NEP ectodomain as previously described; made in house
Assay: ACE inhibition assay, cACE (fluorogenic end point, Z-FHL)
Format: biochemical
Conditions: nACE IC50/cACE IC50
Method: AD014, AD015, and AD016 were tested for in vitro nACE, cACE, and NEP inhibition using purified recombinant single domain human ACE proteins and the human NEP ectodomain as previously described. For an accurate comparison of the inhibitor potencies across different enzymes and substrates, it is preferable to determine inhibition constants (Ki values). […] In the case of these new analogues, it was more challenging to accurately determine Ki values that could reliably be used to determine selectivity. […] This highlights the challenges in extrapolating data from in vitro assays to predict in vivo selectivity between targets. Furthermore, while comparing Ki values (assuming they can be accurately determined in vitro using available kinetic models) provides information on the relative binding affinities in the absence of substrate, in vivo the extent of enzyme inhibition will be affected by the relative concentrations and affinities of the physiological substrates competing for the binding sites. Given that accurate Ki values could not be calculated in a consistent manner for all compound-enzyme combinations, IC50 values are reported (Table 1).
Purified fully glycosylated human cACE and nACE proteins[36],[37] were used in fluorogenic end point activity assays utilizing Cbz-Phe-His-Leu (Z-FHL, Bachem Ltd., nACE Km = 600 μM; cACE Km = 60 μM) as the substrate as previously described.[32] […]

| C-selectivity factor | SMILES |
| --- | --- |
| 24 | Cc1ccc([C@H]2CC[C@@H](C(=O)O)N2C(=O)CNC(=O)[C@@H](S)Cc2ccccc2)cc1 [AD015, (2S,5R)-1-(((S)-2-Mercapto-3-phenylpropanoyl)glycyl)-5-(p-tolyl)pyrrolidine-2-carboxylic Acid] |
| 2 | O=C(N[C@H]1CCS[C@H]2CCC[C@@H](C(=O)O)N2C1=O)[C@@H](S)Cc1ccccc1 [Omapatrilat, reference compound] |
